scFv variants of Ab-14 (light chain) against a SARS-CoV-2 spike peptide

All variants were tested on one target, the spike HR2 peptide PDVDLGDISGINAS (SARS-CoV-2).

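The parent was found by panning a naive human phage display library on the peptide. Designed CDR sequences, proposed from the first random library and measured here. Group labels follow the data file (Ctrl: baseline library sampled from a position-specific scoring matrix, with some repeated check sequences; Rand: our label for a block that the file lists under HC and that is probably the random mutants of the ten best first-round binders; GP: Gaussian process model; HC: hill climbing; Gen: genetic algorithm; Gibbs: Gibbs sampling; a sequence that several methods proposed may carry one label only). AlphaSeq pools MATa yeast showing the antibodies with MATalpha yeast showing the peptide. Binding brings cells together so that they mate, and sequencing counts the barcode pairs among the diploids. Scores were corrected for input abundance and mapped to Kd with protein pairs of known affinity run in the same pool. Each pool was mated in six replicate cultures.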

Parent: Ab-14, a human scFv built as VH, the linker GGGGSGGGGSGGGGS, VL. Only the CDRs of the light chain vary.
VH: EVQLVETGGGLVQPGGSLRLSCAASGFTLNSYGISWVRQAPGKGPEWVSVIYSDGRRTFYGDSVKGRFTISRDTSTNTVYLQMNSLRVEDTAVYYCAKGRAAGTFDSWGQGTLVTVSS
VL: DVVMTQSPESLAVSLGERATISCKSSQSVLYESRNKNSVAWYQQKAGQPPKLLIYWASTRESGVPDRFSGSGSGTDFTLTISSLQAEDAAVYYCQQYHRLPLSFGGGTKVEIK

The whole VL of each variant is written out.
Variants here have at most six changes.
The Kd shown is the geometric mean over detected replicates; a lower Kd is a better binder.
"nd" means that the variant was in the library but no mating with the target was seen in any replicate; the authors take this as a sign of poor binding, and no number exists.

| VL | group | apparent Kd | detected |
|---|---|---|---|
| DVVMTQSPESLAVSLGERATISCKSSQMVSYESRNKNSVAWYQQKAGQPPKLLIYNASTRESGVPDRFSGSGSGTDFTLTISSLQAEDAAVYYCQQYHRAPLSFGGGTKVEIK | Ctrl | nd | 0 of 6 |
| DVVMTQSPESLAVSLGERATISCKVSQSVLYESRNKNAVAWYQQKAGQPPKLLIYHASTRESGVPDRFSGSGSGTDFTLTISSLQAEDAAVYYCQQYHRLPLSFGGGTKVEIK | GP_Gen | 1.9 nM | 6 of 6 |
| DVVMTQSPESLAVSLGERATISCKQSQAFLPESRNKNSVAWYQQKAGQPPKLLIYDANTRESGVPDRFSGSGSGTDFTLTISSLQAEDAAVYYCQQYHRLPLSFGGGTKVEIK | GP_HC | 1.2 nM | 6 of 6 |
| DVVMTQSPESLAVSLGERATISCKSSQSVLGESRNKNSVAWYQQKAGQPPKLLIYNASTRESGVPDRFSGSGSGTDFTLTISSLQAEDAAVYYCQQYHRLPLSFGGGTKVEIK | Ctrl | 1.1 nM | 6 of 6 |
| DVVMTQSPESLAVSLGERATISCKLMQSVLYESRNKNSVAWYQQKAGQPPKLLIYNASQREDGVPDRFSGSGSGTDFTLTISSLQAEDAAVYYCQQYHRLPLSFGGGTKVEIK | GP_Gen | 600 pM | 6 of 6 |
| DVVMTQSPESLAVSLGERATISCKCSQEKLYESRNKNSVAWYQQKAGQPPKLLIYDASTRESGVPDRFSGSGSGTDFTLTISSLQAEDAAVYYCQQYHRLPLSFGGGTKVEIK | GP_HC | 1.1 nM | 6 of 6 |
| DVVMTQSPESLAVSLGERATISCKLYQSQGYESRNKNSVAWYQQKAGQPPKLLIYNASQRESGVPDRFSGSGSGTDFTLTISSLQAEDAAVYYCQQYHRLPLSFGGGTKVEIK | GP_Gen | 580 pM | 6 of 6 |
| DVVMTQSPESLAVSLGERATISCKVSQSVLQQSRNSNSVAWYQQKAGQPPKLLIYEASTREAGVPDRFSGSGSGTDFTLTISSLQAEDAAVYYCQQYHRLPLSFGGGTKVEIK | GP_Gibbs | 1.1 nM | 6 of 6 |
| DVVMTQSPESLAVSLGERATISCKSSQSVLYLSRNKNSVAWYQQKAGQPPKLLIYWASTRETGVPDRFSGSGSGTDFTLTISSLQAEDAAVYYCQQLHRLPLSFGGGTKVEIK | Ctrl | 110 nM | 2 of 6 |
| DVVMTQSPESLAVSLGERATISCKLRQSTLQESRNKNSVAWYQQKAGQPPKLLIYWASTRESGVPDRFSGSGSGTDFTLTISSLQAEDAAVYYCQQYHRLELSFGGGTKVEIK | Rand | nd | 0 of 6 |
| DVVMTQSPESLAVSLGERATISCKLSQSMLYESRNKNSVAWYQQKAGQPPKLLIYEASTRMSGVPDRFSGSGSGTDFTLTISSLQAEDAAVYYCQQYHRLPLSFGGGTKVEIK | GP_Gen | 1.0 nM | 6 of 6 |
| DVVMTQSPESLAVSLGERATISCHLSDSVLYESRNDNSVAWYQQKAGQPPKLLIYNASTRESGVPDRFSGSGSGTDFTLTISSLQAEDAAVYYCQQYHRLPLNFGGGTKVEIK | GP_HC | 2.9 nM | 6 of 6 |
| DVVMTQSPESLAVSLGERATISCKSSQSVLQESRNKNSVAWYQQKAGQPPKLLIYWADTREDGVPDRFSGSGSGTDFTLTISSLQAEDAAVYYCQQYHRLPLSFGGGTKVEIK | Ctrl | 27 nM | 6 of 6 |
| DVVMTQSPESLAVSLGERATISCLSSQSWLYESRNKNSVAWYQQKAGQPPKLLIYWASTRESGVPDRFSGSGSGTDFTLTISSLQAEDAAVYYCQQYHRLPLSFGGGTKVEIK | Ctrl | 52 nM | 1 of 6 |
| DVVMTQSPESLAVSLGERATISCKSSQSVLYEGQNKNSVAWYQQKAGQPPKLLIYWASTRESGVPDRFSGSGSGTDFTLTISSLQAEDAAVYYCQFYHRLPDSFGGGTKVEIK | Ctrl | nd | 0 of 6 |
| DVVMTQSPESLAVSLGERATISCKLSQSMLYESRNKNSVAWYQQKAGQPPKLLIYHASQRESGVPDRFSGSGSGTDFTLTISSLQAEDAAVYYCQQYHRLPLSFGGGTKVEIK | GP_Gen | 870 pM | 6 of 6 |
| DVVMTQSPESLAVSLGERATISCKSSQSVLYEQRNVHSVAWYQQKAGQPPKLLIYFASTRESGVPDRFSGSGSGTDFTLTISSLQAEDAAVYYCQQYHRLPLSFGGGTKVEIK | Ctrl | 1.2 µM | 2 of 6 |
| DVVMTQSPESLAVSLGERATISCKSSQSVLYESRNKNSVAWYQQKAGQPPKLLIYAAQTREVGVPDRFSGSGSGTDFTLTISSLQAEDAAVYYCQQYHRLPLFFGGGTKVEIK | Ctrl | 78 nM | 5 of 6 |
| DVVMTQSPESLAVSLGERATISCKSSQSVLEESRNKNSVAWYQQKAGQPPKLLIYAASTRESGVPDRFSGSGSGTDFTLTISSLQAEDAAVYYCQQYHRLPLSFGGGTKVEIK | Ctrl | 3.0 nM | 6 of 6 |
| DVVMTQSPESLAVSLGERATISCKSGQGVLYESRQKNSVAWYQQKAGQPPKLLIYGASTRESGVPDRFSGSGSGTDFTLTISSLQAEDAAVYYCQQYHRLPLSFGGGTKVEIK | GP_HC | 1.1 nM | 6 of 6 |
| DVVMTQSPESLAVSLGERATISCKVSQSVQYESRNKNSVAWYQQKAGQPPKLLIYEASTRESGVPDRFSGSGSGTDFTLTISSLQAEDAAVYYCQQYHRLPLSFGGGTKVEIK | GP_Gen | 1.4 nM | 6 of 6 |
| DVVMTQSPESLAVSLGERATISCKVSFSELLESRNKNSVAWYQQKAGQPPKLLIYEASTRESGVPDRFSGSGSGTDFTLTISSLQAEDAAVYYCQQYHRLPLSFGGGTKVEIK | GP_HC | 570 pM | 6 of 6 |
| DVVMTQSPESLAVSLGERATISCKLSQSVQYEDRNKNSVAWYQQKAGQPPKLLIYNASTRESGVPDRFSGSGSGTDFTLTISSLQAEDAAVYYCQQYHRLPLSFGGGTKVEIK | GP_Gen | 1.4 nM | 6 of 6 |
| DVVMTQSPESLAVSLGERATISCKSSQSVLFESRNKNSVKWYQQKAGQPPKLLIYDASTRESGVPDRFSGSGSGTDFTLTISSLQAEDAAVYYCQQYHRLPKSFGGGTKVEIK | Rand | 230 nM | 1 of 6 |
| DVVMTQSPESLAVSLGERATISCSSPQSVLYESRNKNSVAWYQQKAGQPPKLLIYWASNRESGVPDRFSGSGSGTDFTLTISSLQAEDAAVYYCQQYHRLPLSFGGGTKVEIK | Ctrl | 360 nM | 1 of 6 |
| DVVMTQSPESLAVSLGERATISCKLPQSVLYESRNKNSVAWYQQKAGQPPKLLIYNASTRYSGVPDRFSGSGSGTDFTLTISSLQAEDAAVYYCQQYHRLPLSFGGGTKVEIK | GP_Gen | 690 pM | 6 of 6 |

A selection of 2 entries from above:

VL	group	apparent Kd	detected
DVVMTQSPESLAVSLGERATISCKSSQSVLYEQRNVHSVAWYQQKAGQPPKLLIYFASTRESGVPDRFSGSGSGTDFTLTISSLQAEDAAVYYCQQYHRLPLSFGGGTKVEIK	Ctrl	1.2 µM	2 of 6
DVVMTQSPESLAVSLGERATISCKLSQSVQYEDRNKNSVAWYQQKAGQPPKLLIYNASTRESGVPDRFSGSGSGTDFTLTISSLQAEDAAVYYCQQYHRLPLSFGGGTKVEIK	GP_Gen	1.4 nM	6 of 6

As a blank, each scFv also met three strains without target: over all light chain designs, 4% of these pairings were detected, typically at 430 nM and seldom below 38 nM.
The parent sequence was in this pool as ten entries: three were never detected, three once, and four in most replicates, with averages from 2.2 nM to 240 nM.
The authors' rule: three or more of the six replicates give a measured affinity, fewer mean a poor binder.
Values of this round are not directly comparable with the first-round values of the same sequences.

Source: Li et al. 2023 (doi:10.1038/s41467-023-39022-2), MIT Lincoln Laboratory and A-Alpha Bio; data file from the FLAb repository.